# Yeast mating assay 1: variants of the scFv Ab-14

The measurements come from Engelhart et al. 2022 (doi:10.1038/s41597-022-01779-4) through the FLAb antibody collection.

Target peptide (SARS-CoV-2 spike, HR2 region): PDVDLGDISGINAS

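The starting antibody came from a phage panning campaign against this peptide. AAYL49 was designed without a model: most single CDR substitutions and a random sample of double and triple ones. The assay is AlphaSeq: two haploid yeast populations carry antibody and antigen on their surface. Binding brings cells together so that they mate, and sequencing counts the barcode pairs among the diploids. A regression on co-assayed BCL2-family reference pairs converts the normalised counts of each replicate to an apparent Kd. Each pool was mated in three replicate cultures.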

Ab-14 is the parent antibody, in scFv form: VH, then a 15-residue (Gly4Ser)3 linker, then VL. The light chain is unchanged in all variants.
VH: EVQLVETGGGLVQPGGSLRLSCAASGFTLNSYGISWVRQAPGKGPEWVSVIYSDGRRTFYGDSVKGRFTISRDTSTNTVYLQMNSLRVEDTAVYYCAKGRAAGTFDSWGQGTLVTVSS
VL: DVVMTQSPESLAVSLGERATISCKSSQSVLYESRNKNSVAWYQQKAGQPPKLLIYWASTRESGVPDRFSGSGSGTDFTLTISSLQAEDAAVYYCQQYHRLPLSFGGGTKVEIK

Variants are written as CDR1, CDR2 and CDR3 of the heavy chain (limits as in the source). Parent: GFTLNSYGIS, VIYSDGRRTFYGDSVK, GRAAGTFDS.
This list gathers variants with a substitution at R56 (VH, numbered from residue 1).
Values are apparent Kd, the geometric mean of the replicates that gave a signal; lower means stronger binding.
Where no diploid with the target was found in any replicate, the entry reads "no signal": below detection, most likely a poor binder, though not proof of it.
Nonspecific signal, from three strains lacking the peptide, appeared in 15% of pairings of library AAYL49, centred on 11 µM (5% of these signals below 680 nM); values are not corrected for it.

With GFTLFSYGIS, VIYSDIHRTFYGDSVK, GRAAGTFDS the result was no signal (0 of 3 replicates).
With GFTLNSYGIS, VIYSFGFRTFYGDWVK, GRAAGTFDS the result was no signal (0 of 3 replicates).
With GFTLNSYGIS, VIYSDYLRTFYGDSVK, GRAADTFDS the result was no signal (0 of 3 replicates).
With GFTLNSYGIS, VIYSDGARTFYIDSVK, GRAAGTFDS the result was 7.0 nM (3 of 3 replicates).
With GFTLNLYGIS, VIYSDGDRTFYGKSVK, GRAAGTFDS the result was 2.5 µM (2 of 3 replicates).
With GFTLNSYGIS, VIGSDGVRTFYGDSVK, GRAAGTYDS the result was no signal (0 of 3 replicates).
With GFTLNSYGIS, VIYSDGVRTFYGDSVK, GRAAGAFDS the result was 6.0 nM (3 of 3 replicates).
With GFTLNSYGIS, VIYSHGCRTFRGDSVK, GRAAGTFDS the result was 49 µM (2 of 3 replicates).
With GFTLNSYGIS, VIYSDGTRTFYGDSVK, GRAAGTFDS the result was 14 nM (3 of 3 replicates).
With GFTLNSRGIS, VIYSDGARTFYGDSGK, GRAAGTFDS the result was 540 nM (2 of 3 replicates).
With GFTLNSYGIS, VIYSEGWRNFYGDSVK, GRAAGTFDS the result was no signal (0 of 3 replicates).
With GFTLNSYGIS, VIYSDGGRTFYGFSVK, TRAAGTFDS the result was no signal (0 of 3 replicates).
With GFTLNSYGIS, VIYADGKRTFYGNSVK, GRAAGTFDS the result was 930 pM (3 of 3 replicates).
With GFTLYSYGIS, VIYSDGQRTFYGDSVK, GRAAGTFES the result was no signal (0 of 3 replicates).
With GFTLNSYGIS, VIYSDGMRQFYGDSVT, GRAAGTFDS the result was 2.4 µM (2 of 3 replicates).
With GLTLNSYGIS, VIYSDGQRTFYGDSVK, NRAAGTFDS the result was no signal (0 of 3 replicates).
With RFTLNSYGIS, VIYSDGPRTFYGDSVK, GRAAGTFDS the result was no signal (0 of 3 replicates).
With GFTLNSYGIS, VIYSDGFRTFYGDSVK, GGAAGTNDS the result was no signal (0 of 3 replicates).
With GFTLNSYGIS, LIYSDGHRRFYGDSVK, GRAAGTFDS the result was 35 µM (1 of 3 replicates).
With GFTLNSYGIS, VIYSDGGRPFYGDSVK, GRAAGTFDS the result was no signal (0 of 3 replicates).
With GFTLNSYGIS, VMYSDGWRTFYGDDVK, GRAAGTFDS the result was 1.9 µM (3 of 3 replicates).
With GFTLNSYDIS, VIYSDGNRTFYGDSVK, GRAYGTFDS the result was 5.0 µM (1 of 3 replicates).
With NFTLKSYGIS, VIYSDGKRTFYGDSVK, GRAAGTFDS the result was 58 nM (3 of 3 replicates).
With GFTLNSYGIS, VIYSDGFRTFYGDCVK, GRAAGTFRS the result was 1.9 µM (1 of 3 replicates).
With GFTLNSYGIS, VIYSDGHRTFYGDSVE, GRAAGTFTS the result was no signal (0 of 3 replicates).
With GFTLNSYGIS, VIYSDGTRTFNGDSVD, GRAAGTFDS the result was no signal (0 of 3 replicates).
With GFTLNSYGIS, VKYSDGCSTFYGDSVK, GRAAGTFDS the result was no signal (0 of 3 replicates).
With GFTLNSYGMS, VIYSDGQRTFQGDSVK, GRAAGTFDS the result was 900 µM (1 of 3 replicates).
With GFTLGSYGIS, VIYSDGHRTFYGDSVA, GRAAGTFDS the result was 40 nM (3 of 3 replicates).
With GFTLNSYGIS, VIYSDGMRPFYGDSVK, GRAAITFDS the result was no signal (0 of 3 replicates).
With GFTLTSYGIS, VIYSDGERTRYGDSVK, GRAAGTFDS the result was 130 nM (3 of 3 replicates).
With GFTLNSYGIS, VIYSDGDRTFKGDSVK, GPAAGTFDS the result was no signal (0 of 3 replicates).
With GFTLNSYGIS, VITSDGGRTFYGDSVK, GRAAGTFDS the result was no signal (0 of 3 replicates).
With GFTLNSYGIS, VIYSDGCRTFYGDSVK, GRAAGTFDS the result was 43 nM (3 of 3 replicates).
With MFTHNSYGIS, VIYSDGARTFYGDSVK, GRAAGTFDS the result was no signal (0 of 3 replicates).
With GFTLNSYGIS, VYLSDGPRTFYGDSVK, GRAAGTFDS the result was no signal (0 of 3 replicates).
With GFTLNSYGIS, RIYSDGPRTFYGDSVK, GRIAGTFDS the result was no signal (0 of 3 replicates).
With GFTLNSYGIS, VIYSDWTRTFYVDSVK, GRAAGTFDS the result was 16 µM (1 of 3 replicates).
With LFTLNSCGIS, VIYSDGERTFYGDSVK, GRAAGTFDS the result was no signal (0 of 3 replicates).
With GFTLNSYGIS, VIYSDGLRTIYGDSVK, GRAAGGFDS the result was 9.8 µM (2 of 3 replicates).
With GFTLNSYGIS, VIYSDGDRTFYGDSVK, QRAAGTFMS the result was no signal (0 of 3 replicates).
With GFTLNSYGTS, VIYSDGGRTFYGDSVK, GRAAGTPDS the result was 5.8 µM (2 of 3 replicates).

Excerpt, the final 4 entries:

LFTLNSCGIS, VIYSDGERTFYGDSVK, GRAAGTFDS: no signal (0 of 3 replicates).
GFTLNSYGIS, VIYSDGLRTIYGDSVK, GRAAGGFDS: 9.8 µM (2 of 3 replicates).
GFTLNSYGIS, VIYSDGDRTFYGDSVK, QRAAGTFMS: no signal (0 of 3 replicates).
GFTLNSYGTS, VIYSDGGRTFYGDSVK, GRAAGTPDS: 5.8 µM (2 of 3 replicates).

In this assay the parent's reference entry averaged 4.4 nM; its copy inside this library read 13 µM (one replicate of three).